This assay addresses T1, SGK1 (Homo sapiens, UniProt O00141).
T1 sequence (O00141 1-431): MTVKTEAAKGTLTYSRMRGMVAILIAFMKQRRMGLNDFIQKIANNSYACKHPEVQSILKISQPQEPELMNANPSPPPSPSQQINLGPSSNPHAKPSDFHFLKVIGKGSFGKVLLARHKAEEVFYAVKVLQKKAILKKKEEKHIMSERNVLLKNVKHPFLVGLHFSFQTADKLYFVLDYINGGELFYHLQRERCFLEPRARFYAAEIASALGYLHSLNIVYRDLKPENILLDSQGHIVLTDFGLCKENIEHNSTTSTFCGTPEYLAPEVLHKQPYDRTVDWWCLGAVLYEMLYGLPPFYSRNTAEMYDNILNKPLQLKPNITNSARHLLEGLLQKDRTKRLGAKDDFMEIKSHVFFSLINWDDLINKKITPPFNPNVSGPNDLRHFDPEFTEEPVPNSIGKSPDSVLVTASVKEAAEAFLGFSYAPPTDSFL
Put plainly: Mass spectrometry-based SGK1 kinase inhibitory assay (LC/MS of phosphorylated […]). In kind it is biochemical. From the text: To identify active compounds with SGK1 inhibitory activity from Ext.R, a novel mass‐spectrometry based kinase inhibitory assay was developed. A polypeptide sequence ([…], m/z: 618.6) derived from glycogen Synthase Kinase‐3(GSK3), a known substrate of SGK1, was optimized and synthesized. We subsequently used liquid chromatography coupled with mass spectrometry (LC/MS) to detect and quantify its phosphorylation level ([…](p)FAE, m/z:658.7) (Figure 3A).^[ [26] ^] Basal level SGK1 was supplemented to each well, and the peak area of phosphorylation was measured in the presence or absence of testing compounds. […]
Synthesis of […] was prepared by Shanghai Sangong Biotech. […] Reactions were terminated by the addition of methyl alcohol with 0.1% trifluoroacetic acid (TFA), and supernatants were analyzed by the Agilent 1100 LC system (Agilent Technologies, USA) and a 1946D single quadrupole mass spectrometer. […] A minimum of three replicates of each sample were analyzed and averaged together. Inhibition of SGK1 was calculated by the following equation (1) Inhibitionrate%=PC−PS/PC P C and P S represented the peak area of product peptide in the control group without test compounds and the tested sample group with various test compounds, respectively.

As to Rhodiosin, the half-maximal inhibitory concentration (IC50) turned out to be 6.62 µM.

What is called IC50 is the concentration at which inhibition is half-maximal.
